Measured values reported in patent EP1624029A1, “New Pyridinium imine based dyes and their use in optical layers for optical data recording” (CLARIANT INTERNATIONAL LTD., priority 2004, dated 2006).

Details: in Tetrafluoropropanol, 25°C

## CC[n+]1ccccc1N=CC1C(=O)NC(=O)NC1=O [Example 1]
  Solubility: 20 mg/mL
